Where “and” joins values, the source holds several entries; their conditions need not be identical. Equal values may be shown once. The entries are a selection whose mix differs from that of the whole data set. Inconclusive results are not listed. Calls of active or inactive are those of the source. The call rests on the fitted dose curve; in most records, active means well fitted activation curve with a large enough effect; inconclusive means small, poorly fitted or top-dose-only effect; inactive means no such curve, though single readings can be large or run the other way.

A short description of this experiment: qHTS assay for re-activators of p53 using a Luc reporter. Further: % of control where 0% means no effect; nearly all actives have a fitted effect of over 45% in size. To be noted: H1299 p53-A138V BP100-luciferase reporter, luminescence, 24 h; at 92.2 µM (top of the series). An excerpt: The p53 tumor suppressor plays a key role in suppression of tumorigenesis and in human carcinogenesis. It is frequently found inactivated in human cancers, mainly by point mutation. These point mutations are found in a wide variety of human cancers and a majority of them affect the DNA binding domain of the protein. The point mutations either alter native p53 conformation or abolish DNA contact. Additionally, cancer cells with p53 mutations are more resistant to chemo-radiation therapies. In order to find activators to reactivate this important protein, a cell-based screen for p53-dependent luciferase-reporter expression was developed. A p53-null H1299 lung cancer cell line was stably co-transfected with a temperature sensitive p53 mutant, p53-A138V, and a p53-responsive BP100-luciferase reporter. This cell model has previously been characterized in a gene chip profiling experiment for p53 activation. By lowering the culture temperature from 37 deg C (mutant p53 conformation) to 32 deg C (w.t. p53 conformation), a 30-60 fold increase in activation of luciferase activity is observed. At assay temperate, 37 deg C, basal reporter expression is very low and after the addition of detection reagent, a luminescent read-out is carried out. NIH Chemical Genomics Center [NCGC] NIH Molecular Libraries Probe Production Centers Network [MLPCN] MLPCN Grant: DA031088-01A1 Assay Provider (PI): Yi Sung, University of Michigan at Ann Arbor
5ul of 1000 cells per well are dispensed in all wells except column 4, into white solid-bottom TC-treated Kalypsys plates. The cells are kept in Opti-MEM and supplemented with 10% FBS and dispensed using a Multidrop (Thermo). Then using the Kalypsys pin-tool, 23nl of compounds are pinned. The compounds are starting concentration at 10mM, with 1:5 dilution, 4 points, and the control compound nocodazole is pinned in column 1 at 25mM, 1:3 dilution, in duplicate, 25mM nocodazole is pinned in column 2. Please note, all concentrations are working concentrations. 5ul of 1pM purified luciferase enzyme is dispensed using the Kalypsys dispenser in column 4. Plates are incubated for 24 hrs at 37 deg C, 5% CO2, and 95% humidity. Then 4ul of the detection reagent Amplite (ABD Bioquest) is added using the Kalypsys dispenser. Plates are incubated for 10 min at ambient room temperature and are then read on the ViewLux (Perkin Elmer) using a clear filter for a luminescent read-out.
(Quantitative high-throughput screening tests each substance at several concentrations.)
Regarding `CN1CCCC(OC(=O)C(c2ccccc2)c2ccccc2)C1` (stereo unspecified), the activity change, positive = activation is inactive: -10.5%.

Consider `Clc1ccc(Cl)c(NC2=NCC(CBr)S2)c1` (stereo unspecified), for which the activity change, positive = activation is inactive: -4.73%. The result for `O=[N+]([O-])c1cc([N+](=O)[O-])c(CCN2CCOCC2)c([N+](=O)[O-])c1` reads inactive: 1.97%; that for `CCN(N=Nc1nonc1N)c1nonc1N`, inactive: -6.76%.

For `Nc1cccc2ccc([As](=O)(O)O)cc12`, the activity change, positive = activation was inactive: -7.82%.

On to `CC(=O)Nc1ccc([As](=O)(O)O)cc1`, for which the activity change, positive = activation was inactive: 3.25%.

For the compound `O=C(O)c1ccccc1[As](=O)(O)O`, the activity change, positive = activation is inactive: 1.29%.

`O=P(Nc1nc2ccc(Cl)cc2s1)(c1ccccc1)c1ccccc1`: the activity change, positive = activation is inactive: 3.31%. Regarding `Cc1cc(SC(NC(=O)c2ccc(F)cc2)C(Cl)(Cl)Cl)ncn1` (stereo unspecified), the activity change, positive = activation is inactive: -30.1%. On to `CCOP(=O)(Nc1ccccc1)OCC`, for which the activity change, positive = activation was inactive: -5.22% and inactive: -5.39%. For `Cc1ccc(NP(=O)(Oc2ccccc2F)Oc2ccccc2F)nc1` the value was inactive: 0.13%; for `CC(C)c1ccc(OP(=O)(Nc2ccccn2)Oc2ccccc2F)cc1` (stereo unspecified), inactive: -1.51%. The result for `CC(C)NC(=O)NP(=O)(Oc1ccccc1)Oc1ccccc1` reads inactive: 3.05%; that for `CCN(CC)C(=S)SC(NC=O)C(Cl)(Cl)Cl` (stereo unspecified), inactive: 4.8%.

As to `O=[N+]([O-])c1cc([N+](=O)[O-])c(-c2ccn[nH]2)s1`, the activity change, positive = activation was inactive: -15.1%. The result for `C[As](=O)(O)c1cccc(C(=O)O)c1` reads inactive: 4.71%. With `O=[As](O)(c1ccc(O)cc1)c1ccccc1O`, the activity change, positive = activation is inactive: -3.39%. The result for `COc1cc(C(=O)NCC2(N3CCOCC3)CCCCC2)ccc1OCC(C)C` reads inactive: 1.87%; that for `Cc1ccc(OP(=O)(Nc2ccc([N+](=O)[O-])cn2)Oc2ccc(C)cc2)cc1`, inactive: 2.64%; that for `COc1ccc(N/C(=N/P(=O)(N2CCOCC2)N2CCOCC2)N2CCOCC2)cc1`, inactive: -1.52%. For `O=C(OC1CN2CCC1CC2)C12CC3CC(CC(C3)C1)C2` (stereo unspecified) the value was inactive: 1.52%; for `Cc1cc(=O)[nH]c(N[N+](=O)[O-])n1`, inactive: 0.119%. Take `Cc1c2c(nc3ccccc13)SC(C(Cl)Cl)C2` (stereo unspecified): the activity change, positive = activation is inactive: 3.5%. Regarding `COc1ccc2nc(NP(=O)(c3ccccc3)c3ccccc3)sc2c1`, the activity change, positive = activation was inactive: -6.23%. With `COc1cc(I)ccc1[As](=O)(O)O`, the activity change, positive = activation is inactive: -2.85%. On to `CCOC(=O)c1ccc(NC(=O)C(C)(CCl)SC)cc1` (stereo unspecified), for which the activity change, positive = activation was inactive: 16.4%.

With `O=C(OC1CN2CCC1CC2)c1cccc([N+](=O)[O-])c1` (stereo unspecified), the activity change, positive = activation is inactive: 4.77%.

As to `COP1(=S)c2c(C)nn(CCC#N)c2N=C(c2ccc(F)cc2)N1C` (stereo unspecified), the activity change, positive = activation is inactive: 12.7%.

As to `O=C(COc1ccccc1)OC1CN2CCC1CC2` (stereo unspecified), the activity change, positive = activation is inactive: 0.494%. The result for `O=C(Nc1ccncc1[N+](=O)[O-])c1ccc([N+](=O)[O-])cc1[N+](=O)[O-]` reads inactive: 15.5%; that for `CCOC(=O)Nc1cccc([As](=O)(O)O)c1`, inactive: 1.04%.

With `O=[N+]([O-])c1ccc(Nc2ccc(Oc3ccc([N+](=O)[O-])cc3[N+](=O)[O-])cc2)c([N+](=O)[O-])c1`, the activity change, positive = activation was inactive: -3.03%. For `O=P(Nc1ccccn1)(c1cccc2ccccc12)c1cccc2ccccc12` the value was inactive: -5.36%. For `Cc1cc(SC(NC=O)C(Cl)(Cl)Cl)ncn1` (stereo unspecified) the value was inactive: -0.143%; for `CCOC(=O)Nc1ccc([As](=O)(O)O)c(O)c1`, inactive: 0.744%; for `CCCCOc1ccc(C(=O)NCC2(N3CCCCC3)CCCCC2)cc1OC`, inactive: -2.66%. On to `Cc1cc(SC(NC(=O)c2ccccc2)C(Cl)(Cl)Cl)nc(C(C)C)n1` (stereo unspecified), for which the activity change, positive = activation is inactive: 12%. The result for `O=P1(Nc2ncccn2)COc2ccccc2OC1` reads inactive: -0.87%. The result for `O=[As](O)(c1cccs1)c1cccs1` reads inactive: 1.16%; that for `Cc1ccc(OCC(=O)OC2CN3CCC2CC3)cc1` (stereo unspecified), inactive: 13.2%. With `O=P1(Nc2ccc(Br)cn2)COc2ccccc2OC1`, the activity change, positive = activation is inactive: -3.15%. Take `NS(=O)(=O)c1cccc(NC(=O)COC(=O)C(O)(c2ccccc2)c2ccccc2)c1`: the activity change, positive = activation is inactive: -1.2%.

With `Nc1cccc([As](=O)(O)c2ccccc2)c1`, the activity change, positive = activation is inactive: -0.754%. Take `Cc1nn(-c2ccccc2)c2c1P(=O)(N1CCOCC1)N(C)C(c1ccccc1)=N2` (stereo unspecified): the activity change, positive = activation is inactive: -6.76%. `CC1CCC(C(C)C)C(OP(=O)(Nc2ccccn2)c2ccccc2)C1` (stereo unspecified): the activity change, positive = activation was inactive: -3.97%. `Cc1ccc(C(=O)OC2CN3CCC2CC3)cc1` (stereo unspecified): the activity change, positive = activation was inactive: -4.35%.

Take `O=C(/C=C/c1ccccc1)OC1CN2CCC1CC2` (stereo unspecified): the activity change, positive = activation was inactive: 2.9%. The result for `CN(C)C1(CNC(=O)c2ccc(S(C)(=O)=O)cc2)CCCCC1` reads inactive: -1.05%; that for `COc1ccccc1CNC(=O)COC(=O)C(O)(c1ccccc1)c1ccccc1`, inactive: -4.32%. For `O=[As](O)(c1ccccc1Br)c1ccccc1Br` the value was inactive: -4.32%; for `CC(C)/C=N\N=C(\N)N[N+](=O)[O-]`, inactive: 9.67%; for `CCOP(=O)(Nc1ccc(C)cn1)OCC`, inactive: 0.302%. For `O=P1(Nc2ccccn2)COc2ccccc2OC1` the value was inactive: -5.62%; for `CCOP(=O)(NC(=NC(C)c1ccccc1)NC(C)c1ccccc1)OCC` (stereo unspecified), inactive: -3.2%. Turning to `Clc1n[nH]nc1-c1nn[nH][15n]1`, the activity change, positive = activation was inactive: -2.07%.

As to `CC(C)(C)C(=O)NC(Sc1ncccn1)C(Cl)(Cl)Cl` (stereo unspecified), the activity change, positive = activation was inactive: 0.803%. `CCCOP(=S)(Nc1nc(N)cc(=O)[nH]1)OCCC`: the activity change, positive = activation was inactive: 5.55%. For `Nc1cccc2c([As](=O)(O)O)cccc12` the value was inactive: -11.9%. Take `COc1cc(C2NCCC3(OCCO3)C2(C)C)cc(OC)c1OC` (stereo unspecified): the activity change, positive = activation is inactive: -2.54%. For `CCOP(=O)(Nc1cccc2ccccc12)OCC` the value was inactive: -11.8%; for `O=[As](O)(O)c1cccnc1`, inactive: 4.1%; for `COc1cc(C(=O)NCC2(N3CCOCC3)CCCCC2)cc(Cl)c1OC(C)C`, inactive: 3.32%. For `CS(=O)(=O)c1ccc(Cl)c(NC(=O)COC(=O)C(O)(c2ccccc2)c2ccccc2)c1`, the activity change, positive = activation was inactive: -0.347%.

On to `O=C(OC1CN2CCC1CC2)c1ccc(Cl)cc1` (stereo unspecified), for which the activity change, positive = activation was inactive: -5.46%. The result for `O=[As](O)(c1cccc(O)c1)c1cccc(O)c1` reads inactive: -2.2%. The result for `NC(=O)Nc1ccc([As](=O)(O)O)cc1` reads inactive: 0.68%; that for `O=[N+]([O-])c1ccc2c(c1)nnn2O`, inactive: 5.71%. As to `N#CCCN(C(=O)COC(=O)C(O)(c1ccccc1)c1ccccc1)c1ccc(F)cc1`, the activity change, positive = activation is inactive: 5.17%.

As for `CCOP1(=S)c2c(C)nn(CCC#N)c2N=C(c2ccc(F)cc2)N1C` (stereo unspecified), the activity change, positive = activation was inactive: -1.21%. In the case of `CN(C(=O)Cc1ccccc1)[C@@H]1CC[C@]2(CCCO2)C[C@H]1N1CCCC1`, the activity change, positive = activation is inactive: -1.34%. The result for `CS(=O)(=O)c1cc([N+](=O)[O-])c2no[n+]([O-])c2c1` reads inactive: 22.1%; that for `CCOP1(=S)c2c(C)nn(CCC#N)c2N=C(c2ccccc2F)N1C` (stereo unspecified), inactive: -9.49%; that for `O=P(Nc1nccs1)(Oc1ccccc1)Oc1ccccc1`, inactive: -2.56%. For `O=P(Nc1nccs1)(c1ccccc1)c1nc2ccccc2s1` (stereo unspecified) the value was inactive: -34%. Take `Nc1ccccc1[As](=O)(O)c1ccccc1`: the activity change, positive = activation was inactive: 6.83%.

With `O=C(O)COc1ccc([As](=O)(O)O)cc1[N+](=O)[O-]`, the activity change, positive = activation is inactive: 0.608%.

Source of the values: PubChem BioAssay AID504706 (National Center for Advancing Translational Sciences (NCATS), 2011).
